Experiments:
[1] = tested on: human skeletal muscle cells; test: Glucose uptake (3H-2-deoxyglucose) in human skeletal muscle cells; assay type: cell-based; settings: caffeines 0.01 mg/mL, insulin 100 nM
Description: (§1) The effect of the crude caffeine extract of Example 1 on glucose uptake in both human adipocytes (fat) and skeletal muscle cells (SMC) was tested (Zen Bio Research, Triangle Park, N.C.).
(§2) Data were analyzed by one-way ANOVA followed by Tukey's post hoc test for multiple comparisons. In FIG. 6, results are expressed as mean±SD. The asterisk * denotes P<0.05 compared with human skeletal muscle cells; the carrot top A denotes P<0.05 compared with untreated human adipocytes.
(§3) Glucose uptake. The in vitro effects of crude caffeine on glucose uptake were assessed with human adipocytes and skeletal muscle cells (Zen-Bio, Research Triangle Park, N.C.). Briefly, primary human subcutaneous adipocytes or primary human myoblasts were differentiated in 96-well microplates. […] All samples, including the positive and negative controls, were tested in triplicate. After a 2-h incubation at 37° C. and 5% CO2, the cells were washed with PBS and lysed. The cell lysate was mixed with scintillation fluid and radioactivity of each well was measured as counts per minute (CPM).

[2] = tested on: human adipocytes; test: Glucose uptake (3H-2-deoxyglucose) in human adipocytes; assay type: cell-based; settings: caffeines 0.01 mg/mL, insulin 100 nM
Description: as §1, §2, §3

insulin
fold increase in glucose uptake [1]: 2.06 fold
fold increase in glucose uptake [2]: 1.6 fold
